Values quoted from earlier work in PMC8015229, “Focus on Human Monoamine Transporter Selectivity. New Human DAT and NET Models, Experimental Validation, and SERT Affinity Exploration” (ACS Chemical Neuroscience, 2020).

Target: SERT
Details: binding affinity for rat transporter; cited from earlier work

For `CNCCC(Oc1ccccc1OC)c1ccccc1` (stereo not shown) [compound 8, nisoxetine], the “SERT pKi exp” value is listed as 6.8.
